This experiment deals with P. aeruginosa. The experiment in a line: Broth microdilution MIC/MBC of conventional antibiotics, planktonic form. The class given is cell-based, Pseudomonas aeruginosa. Particulars: MHB, 5 x 10^5 CFU/ml, 37 °C, 24 h, CLSI. The protocol: MICs and MBCs of conventional antibiotics were determined using a broth microdilution technique. […] Only P. aeruginosa was additionally tested for susceptibility to TOB (Sigma-Aldrich) (0.03–52 μM or 0.01–25 μg/ml). Bacterial suspensions (5 x 10^5 CFU/ml) were added to the microtiter plates, which were then incubated at 37 °C for 24 h. Antibiotic-free culture was used as a control. […] The results were confirmed using a microplate reader at OD620 (Sunrise™, TECAN, Australia). The plate count technique was further used to determine the MBC values on Mueller Hinton agar (MHA) (Himedia®). Each experiment was performed independently three times in triplicate.

`CC1(C)S[C@@H]2[C@H](NC(=O)[C@H](N)c3ccc(O)cc3)C(=O)N2[C@H]1C(=O)O` [AMX, amoxicillin]: the MIC (as a rule, the lowest concentration that inhibits growth of the organism) was found to be 6250 µg/mL.

Source of the values: publication PMC7743948, “D-LL-31 enhances biofilm-eradicating effect of currently used antibiotics for chronic rhinosinusitis and its immunomodulatory activity on human lung epithelial cells” (PLoS ONE, 2020).
